# scFv variants of Ab-95 (light chain) against a SARS-CoV-2 spike peptide

Antigen: PDVDLGDISGINAS, a 14-residue peptide of the SARS-CoV-2 spike HR2 region.

Each scFv is VH, the linker GGGGSGGGGSGGGGS, VL, as in the parent Ab-95, and differs from it in the CDRs of the light chain only.
VH: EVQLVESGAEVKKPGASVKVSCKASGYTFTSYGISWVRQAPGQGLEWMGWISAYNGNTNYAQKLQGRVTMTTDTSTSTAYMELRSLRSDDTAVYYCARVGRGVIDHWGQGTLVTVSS
VL: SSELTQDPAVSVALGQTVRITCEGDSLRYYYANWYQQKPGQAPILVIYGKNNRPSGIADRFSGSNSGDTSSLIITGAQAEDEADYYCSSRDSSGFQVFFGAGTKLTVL

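AAYL52 was designed without a model: most single CDR substitutions and a random sample of double and triple ones. AlphaSeq pools MATa yeast showing the antibodies with MATalpha yeast showing the peptide. Mating (16 h, 30 °C) was followed by selection of diploids and sequencing of their barcodes. Each replicate has its own calibration line, from reference interactions of the BCL2 family. The assay was run in three technical replicates.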

Positions count from residue 1 of the parent VL; E23F puts F in place of E. The read-out is the apparent dissociation constant on a log10 scale (nM): the lower, the stronger. An entry "ND" has no value in the source: the pair was not observed among the diploids in that replicate. This suggests poor binding but is not conclusive. As a blank, each scFv also met three strains without target: over library AAYL52, 28% of these pairings were detected, typically at 3.91 and seldom below 2.90. Also given: how often the same scFv was detected with the empty control strains.

Variant E23F Y30F G49R showed ND, 4.88, ND (controls 5 of 9).
Variant N33I N52F F95V showed ND, ND, ND (controls 4 of 9).
Variant R28G N52V R53F showed 3.81, ND, ND (controls 3 of 9).
Variant D25Y Y31L P54C showed 3.48, 3.21, 4.37 (controls 4 of 9).
Variant R28G F95G showed 2.34, 2.21, 2.02 (controls 4 of 9).
Variant Y29D Y31G F98R showed 2.19, 2.12, 1.69 (controls 4 of 9).
Variant Y31W N52Y R53E showed 3.17, 3.55, ND (controls 4 of 9).
Variant N52L S89T Q96Y showed 4.99, 2.78, 4.50 (controls 3 of 9).
Variant N52E P54G S89P showed ND, ND, ND (controls 1 of 9).
Variant E23T R28V showed 2.48, 2.13, 2.21 (controls 3 of 9).
Variant P54Q G94F V97G showed ND, 5.25, 3.65 (controls 2 of 9).
Variant S55V S88W showed 2.50, 2.13, 2.06 (controls 5 of 9).
Variant G24Y D25H S92H showed 3.80, 4.62, 3.84 (controls 4 of 9).
Variant E23K D25C V97L showed ND, 3.54, ND (controls 3 of 9).
Variant L27Q R53F S88L showed 3.71, ND, ND (controls 0 of 9).
Variant G24C Y30A S55Y showed 3.06, 2.84, 2.65 (controls 1 of 9).
Variant Y29G S88R S92R showed 1.94, 1.91, 1.29 (controls 5 of 9).
Variant D25N N51W S89I showed ND, ND, ND (controls 0 of 9).
Variant A32R Q96G V97D showed 4.39, 5.84, ND (controls 3 of 9).
Variant L27Y D91A S92K showed ND, ND, ND (controls 4 of 9).
Variant Y30K A32C S55E showed 1.55, 1.47, 0.90 (controls 3 of 9).
Variant S55R S92R G94P showed ND, ND, 3.99 (controls 2 of 9).
Variant S26F S88N G94E showed 3.20, 3.48, ND (controls 3 of 9).
Variant R53G S92L F95L showed ND, 4.50, 4.54 (controls 2 of 9).
Variant Y30R R90D F95K showed ND, ND, ND (controls 2 of 9).
Variant L27I Y30I V97Q showed ND, ND, ND (controls 4 of 9).
Variant G24A N51W S93D showed 4.50, ND, ND (controls 1 of 9).
Variant S55G D91Q V97T showed 4.18, 2.57, ND (controls 0 of 9).
Variant E23I N52L S88G showed 2.69, 2.28, 2.63 (controls 7 of 9).
Variant G24I L27C showed 2.47, 2.63, 2.06 (controls 3 of 9).
Variant G49V N52L R53N showed 4.55, ND, 3.13 (controls 1 of 9).
Variant L27C N51C S88E showed 4.58, 5.78, ND (controls 5 of 9).
Variant N51V R53C S93A showed ND, ND, ND (controls 0 of 9).
Variant R53K D91Y F95C showed 4.27, 3.78, 2.43 (controls 1 of 9).
Variant K50C S93R G94F showed 4.65, 3.67, ND (controls 3 of 9).
Variant S88Y S89M V97C showed ND, ND, ND (controls 0 of 9).
Variant A32S N33E Q96P showed ND, 3.87, ND (controls 4 of 9).
Variant E23M N33Q P54N showed ND, 2.87, ND (controls 2 of 9).
Variant A32I P54M S93P showed 3.67, ND, ND (controls 6 of 9).
Variant G24E R28E S93M showed ND, 4.00, 3.91 (controls 3 of 9).

The opening 5 entries, copied out:

Variant E23F Y30F G49R gave ND, 4.88, ND (controls 5 of 9).
Variant N33I N52F F95V gave ND, ND, ND (controls 4 of 9).
Variant R28G N52V R53F gave 3.81, ND, ND (controls 3 of 9).
Variant D25Y Y31L P54C gave 3.48, 3.21, 4.37 (controls 4 of 9).
Variant R28G F95G gave 2.34, 2.21, 2.02 (controls 4 of 9).

The measurements come from Engelhart et al. 2022 (doi:10.1038/s41597-022-01779-4) through the FLAb antibody collection.